Earlier results as cited in PMC9469100, “Turning Nonselective Inhibitors of Type I Protein Arginine Methyltransferases into Potent and Selective Inhibitors of Protein Arginine Methyltransferase 4 through a Deconstruction–Reconstruction and Fragment-Growing Approach” (Journal of Medicinal Chemistry, 2022).

Tested on: lysine methyltransferase SET7/9
Settings: cited from earlier work

Question: Which “activity against the lysine methyltransferase SET7/9” value does the source give for `O=C(Nc1ccc2cc(C(=O)O)cc(O)c2c1)Nc1ccc2cc(C(=O)O)cc(O)c2c1` [compound 2] here?
Answer: Its value is “essentially inactive”.
